Laboratory results as given in patent US20050042624A1, “Tumor antigen” (Kyogo ITOH, priority 2001, published 2005).

System: T2 cell pulsed with peptide
Experiment: 51Cr release assay, pooled OK-CTLd sublines against peptide-pulsed T2 cells
Settings: E/T ratio of 10, 20, and 40; 6 h
Protocol: OK-CTLd sublines were pooled to use as effector cells, and cytotoxicity against target cells was examined by the ^51Cr release assay. […] Effector cells and target cells were mixed each other at an E/T ratio of 10, 20, and 40, and then incubated for 6 h, followed by measuring a radioactivity of ^51Cr released in the culture supernatant.

CC(C)C[C@H](NC(=O)[C@@H](NC(=O)[C@H](C)NC(=O)[C@@H](NC(=O)[C@@H](NC(=O)[C@H](CC(N)=O)NC(=O)[C@H](Cc1ccc(O)cc1)NC(=O)[C@H](CC(C)C)NC(=O)[C@@H](N)CO)[C@@H](C)O)C(C)C)[C@@H](C)O)C(=O)O [HIV, SLYNTVATL, reference compound]
cytotoxicity of pooled OK-CTLd subline against peptide-pulsed target cells: did not show any cytotoxicity
